# Experimental data taken from patent US8101777B2, “Ionic liquids based on imidazolium salts incorporating a nitrile functionality” (Ecole Polytechnique Federale de Lausanne, priority 2003, dated 2012).
# Test: Solubility in common solvents
smiles,measurement,value
"CCCCn1cc[n+](C)c1.F[B-](F)(F)F [[C4mim][BF4], 1-methyl-3-butylimidazolium tetrafluoroborate, reference compound]",Solubility in common solvents: Hexane,immiscible
